# Antibody variant affinities, Ab-91 heavy chain, assay 2

Source: Engelhart et al. 2022 (doi:10.1038/s41597-022-01779-4), MIT Lincoln Laboratory and A-Alpha Bio; data file from the FLAb repository.

Target: peptide PDVDLGDISGINAS, taken from heptad repeat 2 (HR2) of SARS-CoV-2 spike.

Parent: Ab-91, a human scFv built as VL, a (GGGGS)3 linker, VH. Only the CDRs of the heavy chain vary.
VL: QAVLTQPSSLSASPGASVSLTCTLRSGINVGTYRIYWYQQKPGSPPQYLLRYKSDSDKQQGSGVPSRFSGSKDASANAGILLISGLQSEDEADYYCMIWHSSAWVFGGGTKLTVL
VH: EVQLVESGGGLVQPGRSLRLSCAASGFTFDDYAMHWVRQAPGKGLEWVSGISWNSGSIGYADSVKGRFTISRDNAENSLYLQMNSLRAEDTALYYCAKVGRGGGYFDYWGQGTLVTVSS

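Variants in AAYL51 differ from the parent at up to three CDR positions; double and triple changes were sampled at random. In AlphaSeq, yeast of one mating type display the scFv and yeast of the other type display the target. Binding brings cells together so that they mate, and sequencing counts the barcode pairs among the diploids. Each replicate has its own calibration line, from reference interactions of the BCL2 family. The assay was run in three technical replicates.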

Changes read parent residue, position, new residue, counted from the first residue of the VH shown.
Values are log10 of the apparent Kd in nM; lower means stronger binding.
"n.d." means that the variant was in the library but no mating with the target was seen in that replicate; the authors take this as a sign of poor binding, and no number exists.
Nonspecific signal, from three strains lacking the peptide, appeared in 21% of pairings of library AAYL51, centred on 4.54 (5% of these signals below 3.26); values are not corrected for it. Also given: how often the same scFv was detected with the empty control strains, with their mean in brackets.

| # | changes | log10 Kd, replicates | empty controls |
|---|---|---|---|
| 1 | G100C/G103L | n.d. / 4.04 / n.d. | 0 of 9 |
| 2 | N54R/K65S/G103P | 3.37 / n.d. / n.d. | 0 of 9 |
| 3 | S52T/A61P/G104V | 5.23 / n.d. / n.d. | 2 of 9 (3.62) |
| 4 | T28K/S57M/V64A | n.d. / n.d. / n.d. | 0 of 9 |
| 5 | G26W/G59S/D62M | n.d. / n.d. / n.d. | 0 of 9 |
| 6 | D31L/M34P/K65W | n.d. / 5.83 / n.d. | 1 of 9 (3.37) |
| 7 | G59L/G102M | n.d. / n.d. / n.d. | 0 of 9 |
| 8 | A33S/I51A/V64D | n.d. / 4.28 / n.d. | 0 of 9 |
| 9 | I51P/N54W/G100W | n.d. / n.d. / n.d. | 0 of 9 |
| 10 | G56P/G59K/S63M | n.d. / n.d. / n.d. | 0 of 9 |
| 11 | I51M/V64N/D107C | n.d. / n.d. / n.d. | 1 of 9 (1.92) |
| 12 | S63H/G103M | n.d. / n.d. / 3.23 | 0 of 9 |
| 13 | H35Y/S63C | 5.08 / n.d. / n.d. | 4 of 9 (3.76) |
| 14 | I58G | 4.64 / 5.10 / 4.36 | 3 of 9 (4.75) |
| 15 | G56Y/D62S/S63F | 1.91 / 1.75 / 0.88 | 1 of 9 (3.10) |
| 16 | Y32S/S57Q | n.d. / n.d. / n.d. | 0 of 9 |
| 17 | M34G/Y60H/K65W | n.d. / 5.39 / 4.28 | 3 of 9 (4.97) |
| 18 | D31G/W53P/G100V | n.d. / n.d. / 4.35 | 2 of 9 (3.80) |
| 19 | D30S/S63E/G103A | 4.42 / 4.64 / n.d. | 1 of 9 (4.17) |
| 20 | F29Q/M34N/G50M | n.d. / n.d. / n.d. | 3 of 9 (4.63) |
| 21 | F27L/K65Q/R101T | 4.07 / n.d. / n.d. | 3 of 9 (4.44) |
| 22 | W53K/A61I/G103H | 4.01 / 4.79 / 4.44 | 2 of 9 (3.86) |
| 23 | F27R/W53T | 3.83 / n.d. / n.d. | 0 of 9 |
| 24 | S55A/S57K/F106D | 4.49 / 4.49 / 4.25 | 2 of 9 (4.57) |
| 25 | S55A/G100L/Y108N | n.d. / n.d. / n.d. | 3 of 9 (4.53) |
| 26 | G26Q/D30Q/G100K | n.d. / n.d. / n.d. | 1 of 9 (2.39) |
| 27 | N54F/S63E | 3.43 / n.d. / n.d. | 3 of 9 (3.87) |
| 28 | T28C/K65F/G102D | 2.78 / 3.82 / 3.19 | 1 of 9 (4.51) |
| 29 | Y32V/G59E/K65C | n.d. / n.d. / n.d. | 1 of 9 (2.65) |
| 30 | G100F/G102Q/G103D | 5.12 / 5.36 / 5.63 | 4 of 9 (4.99) |
| 31 | V64K/G102L/D107W | n.d. / n.d. / n.d. | 0 of 9 |
| 32 | F29I/S52Y/I58S | 4.04 / n.d. / n.d. | 0 of 9 |
| 33 | I58R/V99M/R101H | n.d. / n.d. / n.d. | 3 of 9 (3.67) |
| 34 | Y32S/G59M/D62R | n.d. / n.d. / n.d. | 0 of 9 |
| 35 | G56P/G100Q | n.d. / n.d. / n.d. | 1 of 9 (3.43) |
| 36 | Y60V/A61S/G103E | n.d. / n.d. / n.d. | 0 of 9 |
| 37 | I51L/N54T/K65C | n.d. / n.d. / n.d. | 0 of 9 |
| 38 | N54M/I58L | 4.33 / 3.75 / n.d. | 1 of 9 (3.56) |
| 39 | S63F/G102Q/D107G | n.d. / n.d. / n.d. | 0 of 9 |
| 40 | A33E/D62I/Y105L | 5.28 / n.d. / 4.56 | 3 of 9 (4.51) |
| 41 | F29N/A33V/G59W | n.d. / n.d. / n.d. | 1 of 9 (3.47) |
| 42 | D30S/I58M/A61D | 0.83 / 0.97 / 0.12 | 7 of 9 (5.02) |

The 2 strongest on average among those seen in every replicate, once more:

| changes | log10 Kd, replicates | empty controls |
|---|---|---|
| D30S/I58M/A61D | 0.83 / 0.97 / 0.12 | 7 of 9 (5.02) |
| G56Y/D62S/S63F | 1.91 / 1.75 / 0.88 | 1 of 9 (3.10) |

For reference, the parent read 1.86 as the reference entry and 0.88 as a member of this library.